Target: T1, Adenosine receptor A2b (Homo sapiens, UniProt P29275)
T1 sequence (P29275 whole entry): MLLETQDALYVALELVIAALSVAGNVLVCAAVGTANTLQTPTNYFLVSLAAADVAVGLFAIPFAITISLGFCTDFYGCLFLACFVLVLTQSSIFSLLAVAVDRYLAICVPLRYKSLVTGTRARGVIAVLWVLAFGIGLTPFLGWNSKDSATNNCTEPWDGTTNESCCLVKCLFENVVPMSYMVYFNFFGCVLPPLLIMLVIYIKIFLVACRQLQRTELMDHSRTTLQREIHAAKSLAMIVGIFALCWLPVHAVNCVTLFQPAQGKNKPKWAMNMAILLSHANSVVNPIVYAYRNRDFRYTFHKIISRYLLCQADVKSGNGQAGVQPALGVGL

With `Nc1nc2ccc(Cl)cc2c2nc(-c3ccco3)nn12` the Ki was 44 nM.
